Literature values, collected in patent US20160193231A1, “RETT SYNDROME AND TREATMENTS THEREFORE” (RETT SYNDROME RESEARCH TRUST, priority 2013, published 2016).

System: synthesis in rat microsomes
Conditions: cited from earlier work

In the case of CC[C@H](C)C(=O)O[C@H]1C[C@@H](C)C=C2C=C[C@H](C)[C@H](CC[C@@H]3C[C@@H](O)CC(=O)O3)[C@H]21 [lovastatin], the IC50 is given as 4.4 nM.
